# Experimental data: US20250179439A1, “PRODUCTION METHOD FOR ORGANOID” (KEIO UNIVERSITY, priority 2022, published 2025)
# System: CRC organoids xenografted into nude mice
# Test: CRC organoid xenograft in nude mice, tumor volume
# Type: in vivo, mouse
# Conditions: cetuximab 40 mg/kg intraperitoneally every 3 days, 7 doses; nab-paclitaxel 20 mg/kg intravenously twice a week, six doses
# Method: All animal experiments were carried out with the approval of the Laboratory Animal Center, Keio University School of Medicine. The verification was carried out by xenografting CRC organoids into nude mice to determine whether the results of HTS using in vitro cultured organoids were the same as those in vivo.
# The CRC organoids were cultured in the same manner as in Example 1. The CRC organoids obtained by suspension culture were centrifuged, and the pellet was suspended in cold Matrigel. 0.2 mL of the CRC organoid suspension (1×10^6 cells/injection) was transplanted with subcutaneous injection into four sites on the left and right sides of nude mice.
# Tumor volumes were measured over time with an electronic caliber. After the tumor volume reached 100 to 150 mm^3, cetuximab (40 mg/kg, available from Merck & Co., Inc.) was intraperitoneally injected every 3 days for 7 doses. In addition, nab-paclitaxel (20 mg/kg, available from Taiho Pharmaceutical Co., Ltd.) was intravenously injected twice a week for six doses.
substance,measurement,value
cetuximab,drug effect in vivo (tumor volume) compared with HTS in vitro,in good agreement with the results of HTS obtained in vitro
